# Values of other authors, collected in article PMC11926787 (ACS Chemical Neuroscience, 2025).
# Details: reference number not given; cited from earlier work
substance,measurement,value
[^3H] harman,time of detection in brain after intravenous administration,30 min
